Key:
[1] = MTT cytotoxicity assay, HFF; format: cell-based; settings: human, HFF cells, 24-hour incubation
Protocol: (§1) Cellular cytotoxicity profile of the compounds was carried out against a panel of cell lines. Standard MTT assays were performed in 96-well plates using the Promega CellTiter96 Non-radioactive Cell Proliferation Assay Kit in conjunction with a 96-well Plate Reader (ThermoMax, Molecular devices), and MDBK, Vero, and HFF cell lines (obtained from ATCC). Several controls were employed including the nucleoside analogs 3TC, AZT, and ddC, as well as, media without drugs. SDS was used as a positive cytotoxic control. The compounds were tested in triplicate at concentrations of 100, 300, and 1000 μM. Following a 24-hour incubation of cells with the test substance, the MTT assay was carried out.

[2] = MTT cytotoxicity assay, Vero; format: cell-based; settings: African green monkey, Vero cells, 24-hour incubation
Protocol: as §1

[3] = Cytotoxicity by neutral red dye uptake in replicon cultures in parallel plates; settings: human
[4] = MTT cytotoxicity assay, MDBK; format: cell-based; settings: cattle, MDBK cells, 24-hour incubation
Protocol: as §1

[5] = In vitro cytotoxicity, HepG2; format: cell-based; settings: human, HepG2 cells

Q: With `COC1C(OP(=O)(OC[C@H]2O[C@@H](n3cnc4c(N)ncnc43)CC2O)SCOC(=O)C(C)(C)C)[C@@H](CO)O[C@H]1n1ccc(=O)[nH]c1=O` (some centres unmarked) [Compound 1] as the molecule, how does the CC50 at 24 h [1] read?
A: > 1000 µM

Q: What about the CC50 at 24 h [2] of the same molecule?
A: > 1000 µM

Q: What about the CC50 at 3 day [3] of the same molecule?
A: > 100 µM

Q: What about the CC50 at 24 h [4] of the same molecule?
A: > 1000 µM

Q: And the CC50 [5]?
A: > 100 µM

Reference: US8404651B2, “Compositions and methods for treating viral infections” (priority 2008, dated 2013)
